Source: US10550089B2, “Inhibitors of protease-activated receptor-2” (Heptares Therapeutics Limited, priority 2016, dated 2020)

By UniProt entry, the sequences of proteins in these tests, tags left out. Residues count along the entry.
UniProt P55085, 26-397: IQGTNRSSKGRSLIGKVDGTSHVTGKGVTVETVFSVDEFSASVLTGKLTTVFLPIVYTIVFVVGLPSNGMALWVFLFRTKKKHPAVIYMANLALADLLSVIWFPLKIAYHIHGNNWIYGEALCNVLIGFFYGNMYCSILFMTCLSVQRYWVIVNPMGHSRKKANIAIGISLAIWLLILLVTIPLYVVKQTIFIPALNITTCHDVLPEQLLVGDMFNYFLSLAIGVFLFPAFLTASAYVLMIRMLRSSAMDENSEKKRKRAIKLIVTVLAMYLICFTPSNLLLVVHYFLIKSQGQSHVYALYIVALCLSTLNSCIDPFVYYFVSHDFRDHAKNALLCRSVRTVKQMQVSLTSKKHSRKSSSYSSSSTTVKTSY

Assays:
PAR2 [1] = biological target: T1, PAR2 (Homo sapiens (Human), UniProt P55085); experiment: Trypsin activated FLPR Ca2+ mobilization assay for PAR2 antagonist activity; format: cell-based; conditions: hPAR2 FLPR (Trypsin) IC50 (μM), 1321N1 cells stably expressing human PAR2; agonist Trypsin; Vorapaxar present to block PAR1
Experimental: Trypin Activated FLPR Assay:
Protocol for Testing Compounds for PAR2 Antagonist Activity Using a Ca2+ Mobilization Assay
Calcium mobilization was measured using 1321N1 cells stably expressing human PAR2. Cells were seeded in 384-well plates at 4,000 cells per well in 20 μl DMEM with Glutamax supplemented with 10% FBS and incubated for 18-24 h at 37° C., 5% CO2 and 95% humidity. […] The addition was done using a FLIPR^TETRA (384-well head, Molecular Devices) and the response was read simultaneously to detect any agonist activity.

PAR2 [2] = biological target: T1, PAR2; experiment: IP-One HTRF assay for PAR2 antagonist activity (IP1 production); format: cell-based; conditions: hPAR2 IPpone IC50 (μM), 1321N1 cells stably expressing human PAR2; agonist SLIGRL-NH2
Experimental: Protocol for Testing Compounds for PAR2 Antagonist Activity Using an IP-One HTRF Assay
Inositol monophosphate (IP1) production were measured in 1321N1 cells stably expressing human PAR2 using an IP-One HTRF assay kit (Cisbio). […] After 60 min at 37° C. cells were lysed and IP1 concentrations were detected according to the manufacturers protocol (Cisbio). Data were normalized to IP1 concentrations using a IP1 standard curve according to the manufacturers protocol (Cisbio).

OC(c1ncc[nH]1)c1ccc(F)c2oc3ccccc3c12 (stereo not drawn) [Example 53, (4-Fluorodibenzo[b,d]furan-1-yl)(1H-imidazol-2-yl)methanol]
IC50 (PAR2 [1]): 5.42 µM
IC50 (PAR2 [2]): 1.63 µM

Cc1cccc2c(F)ccc(C(O)c3ncc[nH]3)c12 (stereo not drawn) [Example 59, (4-Fluoro-8-methylnaphthalen-1-yl)(1H-imidazol-2-yl)methanol]
IC50 (PAR2 [1]): 6.73 µM

CCc1ccn2c(F)ccc(C(O)c3ncc[nH]3)c12 (stereo not drawn) [Example 60, (1-Ethyl-5-fluoro-indolizin-8-yl)-(1H-imidazol-2-yl)methanol]
IC50 (PAR2 [1]): 8.13 µM

OC(c1ncn[nH]1)c1ccc(F)cc1N1CCCC1 (stereo not drawn) [Example 64, (4-Fluoro-2-(pyrrolidin-1-yl)phenyl)(1H-1,2,4-triazol-5-yl)methanol]
IC50 (PAR2 [1]): 20 µM
IC50 (PAR2 [2]): 4.06 µM
